Laboratory results as given in patent US10342767B2, “Therapy for kinase-dependent malignancies” (CHILDREN'S HOSPITAL MEDICAL CENTER, priority 2011, dated 2019).

Columns and labels:
[1] = tested on: Kit+ cells expressing FLT3ITD and MLLAF9; experiment: CFU assay of Kit+ cells expressing FLT3ITD and MLLAF9; assay type: cell-based, mouse; details: 5 nM of AC220
[2] = tested on: CD34 cells expressing FLT3ITD and MLLAF9; experiment: Humanized AML model (FLT3ITD:MLLAF9 cord blood CD34 cells), in vitro assay; assay type: cell-based, human; details: IL3, IL6, SCF and TPO
[3] = tested on: EGFR; details: NSCLC patients with activating EGFR mutations; cited from earlier work

Row | Compound | response of CFUs to Flt3 TKI [1] | response to AC220 in the presence of GF [2] | response rate [3]
1 | CC(C)(C)c1cc(NC(=O)Nc2ccc(-c3cn4c(n3)sc3cc(OCCN5CCOCC5)ccc34)cc2)no1 [AC220, quizartinib] | resistant | resistance | 
2 | COc1cc2ncnc(Nc3ccc(F)c(Cl)c3)c2cc1OCCCN1CCOCC1 [gefitinib] |  |  | approximately 70%
